From ChEMBL document CHEMBL1132530, “Picking the S1, S1' and S2' pockets of matrix metalloproteinases. A niche for potent acyclic sulfonamide inhibitors” (Bioorg Med Chem Lett, 1999)

Biological target: T1, Interstitial collagenase (Homo sapiens, UniProt P03956)
T1 sequence (P03956 whole entry): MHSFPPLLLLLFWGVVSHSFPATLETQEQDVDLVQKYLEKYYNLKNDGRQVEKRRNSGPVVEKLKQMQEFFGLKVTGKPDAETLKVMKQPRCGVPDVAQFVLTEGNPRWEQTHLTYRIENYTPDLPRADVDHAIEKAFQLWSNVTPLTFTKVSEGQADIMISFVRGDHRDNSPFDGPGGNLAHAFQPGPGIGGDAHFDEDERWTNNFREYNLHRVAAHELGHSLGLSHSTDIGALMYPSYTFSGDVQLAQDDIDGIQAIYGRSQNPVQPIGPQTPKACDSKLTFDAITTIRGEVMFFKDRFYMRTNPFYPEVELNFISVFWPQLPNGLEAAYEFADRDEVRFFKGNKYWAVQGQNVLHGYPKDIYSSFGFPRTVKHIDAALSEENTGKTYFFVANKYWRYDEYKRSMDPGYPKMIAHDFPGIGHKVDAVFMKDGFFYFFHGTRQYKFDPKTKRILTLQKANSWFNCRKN
Test: Inhibition of matrix metalloprotease-1

COc1ccc(S(=O)(=O)N(Cc2cccnc2)[C@@H](C(=O)NO)C(C)C)cc1 [CGS-27023A]
IC50: 0.096 µM
